Drawing on patent US6794396B2, “Substituted pyridines useful for inhibiting cholesteryl ester transfer protein activity” (Pharmacia Corporation, priority 1998, dated 2004), this text covers IC50 for eleven compounds.

Sequences of proteins named here, by UniProt entry; tags and fusion partners are left off. Residues count along the entry.
UniProt P11597, 18-493 limits assumed: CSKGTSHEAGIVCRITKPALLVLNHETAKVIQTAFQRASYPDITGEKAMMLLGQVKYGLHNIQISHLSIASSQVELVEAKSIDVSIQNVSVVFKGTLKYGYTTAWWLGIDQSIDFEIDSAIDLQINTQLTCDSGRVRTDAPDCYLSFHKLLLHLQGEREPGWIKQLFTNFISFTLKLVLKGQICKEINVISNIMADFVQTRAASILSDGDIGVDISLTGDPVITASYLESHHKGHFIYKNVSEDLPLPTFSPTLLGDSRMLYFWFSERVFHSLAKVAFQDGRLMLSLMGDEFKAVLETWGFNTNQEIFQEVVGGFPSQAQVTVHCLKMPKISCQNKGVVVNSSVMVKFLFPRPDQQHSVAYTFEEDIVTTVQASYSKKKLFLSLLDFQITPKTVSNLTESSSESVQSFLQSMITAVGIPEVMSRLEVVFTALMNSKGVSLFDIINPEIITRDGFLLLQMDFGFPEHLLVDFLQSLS

The target in the test is CETP (Homo sapiens, UniProt P11597). In words: CETP activity in vitro: transfer of [3H]CE from HDL donor to LDL acceptor particles. The class given is biochemical. As to conditions: read-out: IC50(μm); 50% inhibition of [3H]CE transfer from HDL to LDL, 2 hours at 37° C.

As for `COC(=O)c1c(C(F)F)nc(C(F)(F)F)c(C(OC)c2cccs2)c1CC(C)C` (centres unmarked), the IC50 – broadly, the concentration that gives 50% inhibition – came out at 50 µM. Turning to `COC(=O)c1c(C(F)F)nc(C(F)(F)F)c(-c2cc(C)sn2)c1CC(C)C`, the IC50 was determined as 50 µM. The result for `COC(=O)c1c(C(F)F)nc(C(F)(F)F)c(C(=O)c2cnc(Cl)s2)c1CC(C)C` reads 80 µM; that for `CCOC(=O)c1c(C(F)F)nc(C(F)(F)F)c(C2=NO[C@H](Cl)[C@H]2Cl)c1CC(C)C` (relative stereo), 30 µM; that for `CCOC(=O)c1c(C(F)(F)F)nc(C(F)F)c(C(=O)OC)c1SC1=NCCS1`, 6 µM. As to `COC(=O)c1c(C(F)F)nc(C(F)(F)F)c(C(C#N)=C2OCCO2)c1CC1CC1`, the IC50 came to 50 µM.

In the case of `COC(=O)c1c(C(F)(F)F)nc(C(F)F)c(C(=O)NCc2ccc(Cl)cc2)c1CC(C)C`, the IC50 was 70 µM.

Regarding `COC(=O)c1c(C(F)F)nc(C(F)(F)F)c(N=C2SCCC2C)c1CC(C)C` (centres unmarked), the IC50 worked out at 50 µM. `CCOC(=O)c1c(C(F)(F)F)nc(C(F)(F)F)c(C)c1OC(=O)c1ccc(C(F)(F)F)cc1`: the IC50 is 25 µM. To `COC(=O)c1c(C(F)F)nc(C(F)(F)F)c(N=C2CSCCS2)c1CC(C)C` belongs 10 µM; to `CCc1c(C(=O)OC(C)C)c(C(F)(F)F)nc(C(F)(F)F)c1C(=O)OC(C)C`, 90 µM.
